# Data reported in US20250074946A1, “USE OF SE-DR AFFINITY PEPTIDE IN PREPARING DRUG FOR TREATING RHEUMATIC DISEASE” (HEBEI FITNESS BIOTECHNOLOGY CO., LTD., priority 2021, published 2025).
# Target: HLA-DR1 (Homo sapiens, UniProt P01903+P01911, A100R/D57E/F55L/F60I/F76Y/I96L/L162R/M171V/P40L/Q125E/R42F/V115G/Y59C)
# Assay: Determination of polypeptide affinity (fluorescence polarization competition)
# Type: binding
structure (smiles),measurement,value
CC(C)C[C@H](NC(=O)[C@H](C)NC(=O)[C@H](CC(C)C)NC(=O)[C@@H](NC(=O)[C@H](C)NC(=O)[C@H](CCC(N)=O)NC(=O)[C@H](CCCCN)NC(=O)[C@H](C)NC(=O)[C@@H](N)Cc1ccc(O)cc1)[C@@H](C)O)C(=O)N[C@@H](C)C(=O)O [APL7],IC50,4.63 µM
